{"source": "patent US8030025B2", "about": "“Antibodies directed to angiopoietin-1 and angiopoietin-2 and uses thereof” (Amgen Inc., dated 2011)", "binders": {"B1": {"name": "H4L11 (IgG2) (antibody, V domains shown)", "VH": "EVQLVQSGGGVVQPGRSLRLSCAASGFTFSSYGMHWVRQAPGKGLEWVSYISSSGSTIYYADSVKGRFTISRDNAKNSLYLQMNSLRAEDTAVYYCARDLLDYDLLTGYGYWGQGTLVTVSS", "VL": "not shown"}, "B2": {"name": "H5L1 (antibody, V domains shown)", "VH": "EVQLVQSGGGVVQPGRSLRLSCAASGFTFSSYGMHWVRQAPGKGLEWVSYISSSGSTIYYADSVKGRFTISRDNAKNSLYLQMNSLRAEDTAVYYCARDLLDYDIWTGYGYWGQGTLVTVSS", "VL": "not shown"}, "B3": {"name": "H5L12 (antibody, V domains shown)", "VH": "EVQLVQSGGGVVQPGRSLRLSCAASGFTFSSYGMHWVRQAPGKGLEWVSYISSSGSTIYYADSVKGRFTISRDNAKNSLYLQMNSLRAEDTAVYYCARDLLDYDIWTGYGYWGQGTLVTVSS", "VL": "not shown"}}, "key": {"Cyno Ang1": {"target": "Cyno Ang1 (cynomolgus monkey, UniProt A0A2K5VW43)", "assay": "neutralization ELISA; coated angiopoietin vs Tie2-Fc"}, "[1]": {"target": "biotinylated human angiopoietin 1 (human, UniProt Q15389, biotin)", "assay": "HTRF neutralization; biotin-hAng1 vs huTie-2-Fc-APC"}, "[2]": {"target": "biotinylated human angiopoietin 2 (human, UniProt O15123, biotin)", "assay": "HTRF neutralization; biotin-hAng2 vs huTie-2-Fc-APC"}}}
{"binder": "B1", "values": [{"measurement": "IC50", "setting": "Cyno Ang1", "result": 14, "unit": "nM"}]}
{"binder": "B2", "values": [{"measurement": "IC50", "setting": "[1]", "result": 1.7, "unit": "nM"}, {"measurement": "IC90", "setting": "[1]", "result": 24, "unit": "nM"}, {"measurement": "IC90", "setting": "[2]", "result": 0.29, "unit": "nM"}]}
{"binder": "B3", "values": [{"measurement": "IC50", "setting": "[1]", "result": 14, "unit": "nM"}, {"measurement": "IC90", "setting": "[1]", "result": 159, "unit": "nM"}, {"measurement": "IC90", "setting": "[2]", "result": 0.31, "unit": "nM"}]}
